Active and inactive are the calls of the source. No cut-off for these calls is given here.

What all share (format): cell-based
Test [1] deals with T1, P2X purinoceptor 7 (Mus musculus) (UniProt Q9Z1M0).
T1 sequence (whole entry): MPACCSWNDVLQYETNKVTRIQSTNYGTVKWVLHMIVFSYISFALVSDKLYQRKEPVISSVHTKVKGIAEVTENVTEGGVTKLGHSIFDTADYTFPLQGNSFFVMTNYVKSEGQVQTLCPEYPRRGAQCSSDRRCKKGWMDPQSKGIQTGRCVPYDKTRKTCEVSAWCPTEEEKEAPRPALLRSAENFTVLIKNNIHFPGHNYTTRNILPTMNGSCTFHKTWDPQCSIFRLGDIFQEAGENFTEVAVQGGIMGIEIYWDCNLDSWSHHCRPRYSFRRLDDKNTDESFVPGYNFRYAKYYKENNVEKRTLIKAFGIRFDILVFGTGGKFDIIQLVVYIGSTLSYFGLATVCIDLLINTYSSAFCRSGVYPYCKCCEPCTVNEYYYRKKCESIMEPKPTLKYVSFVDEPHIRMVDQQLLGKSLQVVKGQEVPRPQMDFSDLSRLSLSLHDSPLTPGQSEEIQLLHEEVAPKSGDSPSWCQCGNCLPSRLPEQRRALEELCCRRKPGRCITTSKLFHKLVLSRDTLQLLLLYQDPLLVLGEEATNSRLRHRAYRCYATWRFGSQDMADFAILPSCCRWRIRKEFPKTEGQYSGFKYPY
Description: Non-competitive antagonist activity against mouse P2X7 receptor expressed in HEK293 cells assessed as non-competitive inhibition of ATP-induced PI accumulation.

For test [2], the target named is T1, P2X purinoceptor 7 (Mus musculus). Nature of the test: Antagonist activity against mouse P2X7 receptor expressed in HEK293 cells assessed as inhibition of ATP-induced PI accumulation by measuring inhibition of red fluorescence at 1 uM by fluorescence microscopy analysis.
For test [3] the target is unchanged. Description: Antagonist activity against mouse P2X7 receptor expressed in HEK293 cells assessed as protection of ATP-induced mitochondrial membrane damage at 1 uM by MitoTracker (red) assay.
Test [4] has the same target. Nature of the test: Antagonist activity against mouse P2X7 receptor expressed in HEK293 cells assessed as decrease in LPS/ATP-induced mitochondrial superoxide anion radical increase at 1 uM by MitoSOX (red) assay.

In the case of `C[C@H](NC(=O)c1cnc(-c2ccc(S(C)(=O)=O)cc2)s1)c1cn(-c2cc(C(F)(F)F)ccn2)nn1`, in test [1], the Activity entry was “Active; Concentration Dependent Rightward Shift And Reduced Maximum Response Observed”. Moreover, in test [2], the inhibition result is “Active”. The outcome in test [3] and in test [4] was Active.

Source of the values: ChEMBL document CHEMBL6120956, “Discovery of a Potent, Orally Active, and Long-Lasting P2X7 Receptor Antagonist as a Preclinical Candidate for Delaying the Progression of Chronic Kidney Disease” (J Med Chem, 2024).
